Values quoted from earlier work, collected in patent US9969776B2, “Drug conjugates for delivering compounds to senescent cells” (Unity Biotechnology, Inc., priority 2007, dated 2018).
Like-named read-outs stand apart in the source and are kept apart here.

How the values were obtained:
[1] = ×5 days; cited from earlier work
[2] = in man; cited from earlier work

Substance | MTD [1] | MTD [2]
5-FU | 500 mg/m^2/day | –
Cis-Pt | – | 100 mg/m^2
carbo-Pt | – | 360 mg/m^2
